Laboratory results as given in patent publication US8003669B2, “Remedy for sleep disturbance” (Mitsubishi Tanabe Pharma Corporation, priority 2002, dated 2011).
Some compounds may have been tested in ways that are not shown here.

Amino acid sequences for entries named in this document (tags omitted).
UniProt P41146, whole entry: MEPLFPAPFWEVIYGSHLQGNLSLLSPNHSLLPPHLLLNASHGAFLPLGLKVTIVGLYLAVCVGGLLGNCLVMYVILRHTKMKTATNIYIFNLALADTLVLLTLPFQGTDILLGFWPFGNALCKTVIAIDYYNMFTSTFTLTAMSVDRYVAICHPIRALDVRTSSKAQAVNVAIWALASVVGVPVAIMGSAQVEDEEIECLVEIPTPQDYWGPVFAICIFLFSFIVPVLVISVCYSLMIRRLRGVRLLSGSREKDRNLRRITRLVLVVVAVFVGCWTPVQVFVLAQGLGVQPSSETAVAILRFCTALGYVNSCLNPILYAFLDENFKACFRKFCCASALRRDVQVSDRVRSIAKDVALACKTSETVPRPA
UniProt P35370, whole entry: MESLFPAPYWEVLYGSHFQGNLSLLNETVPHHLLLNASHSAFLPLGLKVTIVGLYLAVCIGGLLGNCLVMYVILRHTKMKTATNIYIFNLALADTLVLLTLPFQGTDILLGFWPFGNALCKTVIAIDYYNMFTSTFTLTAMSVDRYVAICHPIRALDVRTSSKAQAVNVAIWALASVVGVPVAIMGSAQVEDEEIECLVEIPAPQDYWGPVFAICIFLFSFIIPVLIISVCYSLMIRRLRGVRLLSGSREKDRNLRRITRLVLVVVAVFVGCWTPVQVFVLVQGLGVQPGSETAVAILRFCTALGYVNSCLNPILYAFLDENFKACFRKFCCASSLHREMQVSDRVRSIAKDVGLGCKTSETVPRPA

What was measured:
human ORL-1 receptor = human ORL-1 receptor (Homo sapiens, UniProt P41146); test: Agonist action: inhibition of forskolin-stimulated cAMP elevation in HEK293 cells; type: cell-based; conditions: HEK293 cells expressing human ORL-1 receptor, forskolin 1 μmol/L
ORL-1 receptor = ORL-1 receptor (Rattus norvegicus, UniProt P35370); test: ORL-1 receptor binding test ([3H]-nociceptin); conditions: receptor prepared from cerebral cortex of rat
rats [1] = test: Antagonistic action of the ORL-1 receptor antagonist on the phase advancement by the ORL-1 receptor agonist; type: in vivo, rat; conditions: constant dark, agonist intraperitoneally at CT6, compound D orally 1 hour before
rats [2] = test: Phase shift of circadian rhythm by the ORL-1 receptor agonist under a constant dark condition; conditions: intraperitoneal, administered at CT6 or CT9

O=c1[nH]c2ccccc2n1C1CCN([C@@H]2Cc3cccc4cccc2c34)CC1
inhibition of cAMP production (ORL-1 receptor agonistic activity) (human ORL-1 receptor): inhibited cAMP production depending on concentration | IC50 (ORL-1 receptor; read-out: IC50 value, inhibition of the binding of [3H]-nociceptin, 25° C., 20 minutes): 72.8 nM | Ki (ORL-1 receptor; read-out: Ki value, inhibition of the binding of [3H]-nociceptin, Ki=IC50/(1+L/Kd)): 8.4 nM | phase advancement by the agonist after pre-administration of test compound D (rats [1]): antagonized by pre-administration of the test compound D | phase shift of body-temperature circadian rhythm (rats [2]): noticeable phase advancing action
